Assay results as given in PubChem BioAssay AID1671188 (National Center for Advancing Translational Sciences (NCATS), 2021).
The list shows a part of the results, in another mix than the full data. Results filed as inconclusive are left out. Activity calls are given as the source filed them. The call rests on the fitted dose curve; in most records, active means well fitted inhibition curve with a large enough effect; inconclusive means small, poorly fitted or top-dose-only effect; inactive means flat fitted curve, though single readings scatter.

By UniProt entry, the sequences of proteins in these tests, tags left out. Where a name states a change or a piece, a line headed by the entry shows the natural chain unless it says otherwise.
UniProt Q8TD30: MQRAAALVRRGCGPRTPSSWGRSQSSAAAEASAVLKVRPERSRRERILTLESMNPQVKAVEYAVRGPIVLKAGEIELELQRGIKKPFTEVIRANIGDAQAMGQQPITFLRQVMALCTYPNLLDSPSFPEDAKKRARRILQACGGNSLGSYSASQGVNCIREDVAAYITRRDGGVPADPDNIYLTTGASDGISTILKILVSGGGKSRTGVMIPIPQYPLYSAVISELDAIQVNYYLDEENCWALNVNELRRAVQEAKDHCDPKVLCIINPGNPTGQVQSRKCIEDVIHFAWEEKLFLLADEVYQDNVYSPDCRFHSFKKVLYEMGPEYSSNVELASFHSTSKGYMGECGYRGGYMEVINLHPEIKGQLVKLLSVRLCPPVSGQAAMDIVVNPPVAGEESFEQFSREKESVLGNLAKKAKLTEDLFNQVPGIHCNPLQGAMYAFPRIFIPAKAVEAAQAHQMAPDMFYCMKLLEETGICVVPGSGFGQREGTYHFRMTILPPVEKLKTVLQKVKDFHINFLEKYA

Molecular target: Alanine aminotransferase 2 (Homo sapiens) (UniProt Q8TD30)
Experiment: Primary qHTS assay for inhibitors of Glutamate pyruvate transaminase 2 (GPT2); further: nearly all actives have a fitted effect of over 60% in size
Conditions: Recombinant GPT2, coupled pyruvate oxidase/HRP Amplex Red fluorescence; at 88.5 µM (top of the series) unless noted
Protocol: Assay Provider: Zhenghe John Wang Ph.D.
Case Western Reserve University, Cleveland OH
Glutamate pyruvate transaminase 2 (GPT2) catalyzes the reversible transamination of glutamate and pyruvate to provide a-ketoglutarate and alanine. We have optimized an assay for GPT2 enzymatic activity that couples pyruvate formation to detection of fluorescence using an established pyruvate oxidase/horseradish peroxidase / Amplex Red system.
Screening conditions were 250uM a-KG, 2mM L-alanine, and 10ng/uL GPT2 in […] of solution; 10uL of Amplex reaction mix (outlined below) were added so that final concentrations of Amplex reagents in 50uL were 0.2mM ThPP, 0.2U/mL PO and HRP, and 50uM Amplex.
NOTE: The volume of GPT2 in the system depends on the activity of it. The activity is different every batch. You need to test the activity before the assay. For full plate assay with automation, plate 20uL of GPT2 buffer to pin into, then add 10uL of GPT2 dilution followed immediately by 10uL of substrate dilution. 2 Columns of the plate were devoted to GPT2 buffer ([…] PH7.5, 0.0001% Tween) + 50uM AOA (known GPT2 inhibitor) to serve as a positive control. Complete the assay as normal. Amplex-red buffer: […] PH7.5, 1 mM EDTA, 1 mM MgCl2.
1. Combine a-KG and L-alanine at desired concentrations and incubate for at least 10 minutes at 37C. Stocks of L-alanine and a-KG are diluted in distilled water. However, the stocks were diluted in GPT2 buffer for the assay.
2. Prepare GPT2 dilution at the desired concentration in GPT2 buffer.
3. Plate 40uL of GPT2 dilution with 40uL of substrate dilution and let incubate for 30 minutes at room temperature.
4. Add 20uL of Amplex reaction mix prepared as follows: 1.5uL 200U/mL Horseradish Peroxidase, 200mM Thiamine Pyrophosphate, 200U/mL Pyruvate Oxidase; 7.5uL 10mM Amplex Red; 288uL Amplex Buffer.
5. Incubate for 30 minutes at room temperature in the dark, then image using AM_Amplex_Fluorescence on plate reader nearest the window.
On the % scale 0 is the no-effect control and ±100 the full control effect.

SMILES	activity change, negative = inhibition
CN(C(=O)Cc1ccccc1)[C@@H]1CC[C@]2(CCCO2)C[C@H]1N1CCCC1	inactive: -1.58% [at 57.7 µM]
CN(C(=O)Cc1ccc(Cl)c(Cl)c1)[C@H]1CC[C@@]2(CCCO2)C[C@@H]1N1CCCC1	inactive: -1.46% [at 57.7 µM]
CN(CCCl)Cc1cc(Cl)c(NC2=NCCN2)c(Cl)c1	inactive: -3.16% [at 57.7 µM]
Cc1cc([N+](=O)[O-])cc([N+](=O)[O-])c1O	inactive: -2.41%
CNCc1cc2ccccc2o1	inactive: 0.634%
CCNC(C)Cc1ccc2c(c1)OCO2 (stereo unspecified)	inactive: 4.26%
